# AlphaSeq binding of Ab-14 heavy chain variants to a spike HR2 peptide

Target peptide (SARS-CoV-2 spike, HR2 region): PDVDLGDISGINAS

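This is the validation round: designs drawn from the data on random variants, tested in the same kind of assay. Several design methods are mixed in this list. AlphaSeq pools MATa yeast showing the antibodies with MATalpha yeast showing the peptide. After mating in shaken culture at 30 °C for 16 h, diploids were selected and their barcode pairs sequenced. The ratio of observed to expected reads was calibrated, replicate by replicate, on BCL2-family standards whose Kd was known from biolayer interferometry. Mating was done six times.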

Ab-14 is the parent antibody, in scFv form: VH, then three GGGGS repeats, then VL. The light chain is unchanged in all variants.
VH: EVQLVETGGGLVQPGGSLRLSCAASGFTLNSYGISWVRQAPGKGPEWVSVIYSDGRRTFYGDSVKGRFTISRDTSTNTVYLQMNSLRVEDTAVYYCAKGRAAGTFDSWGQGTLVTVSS
VL: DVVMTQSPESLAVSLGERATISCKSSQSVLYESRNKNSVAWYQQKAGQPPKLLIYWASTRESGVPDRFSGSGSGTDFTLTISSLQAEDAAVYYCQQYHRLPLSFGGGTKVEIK

Sequences are complete VH domains. This list holds designs with more than six substitutions. The read-out is the apparent dissociation constant on a log10 scale (nM): the lower, the stronger. A mean of the replicates is given; it leaves out those without a signal. "no signal" marks a missing value. The strain was present, yet no cells mated with the target were sequenced in any replicate, which points to weak or no binding. A sequence measured in both rounds can read differently, since the two assays cover different ranges.

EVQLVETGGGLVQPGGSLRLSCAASGFDLEEYGISWVRQAPGKGPEWVSVIYADGRRTAYADNVKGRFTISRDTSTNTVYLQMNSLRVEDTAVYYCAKGMSGADGMFWGQGTLVTVSS: no signal (0 of 6 replicates).
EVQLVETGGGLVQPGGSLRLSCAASGFDLDQYGISWVRQAPGKGPEWVSVIYADGKRVAYTADVKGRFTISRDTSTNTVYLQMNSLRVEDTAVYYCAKGVQGGMAIVWGQGTLVTVSS: 3.45 (1 of 6 replicates).
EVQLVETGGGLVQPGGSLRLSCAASGFDLNEYGISWVRQAPGKGPEWVSVIYADGRRTFYADSVKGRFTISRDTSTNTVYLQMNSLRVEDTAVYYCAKGKTAGTFDQWGQGTLVTVSS: -0.27 (6 of 6 replicates).
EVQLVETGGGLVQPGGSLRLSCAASGFDLNEYGISWVRQAPGKGPEWVSVIYADGMRTAYVDSVKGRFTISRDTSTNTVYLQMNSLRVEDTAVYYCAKGNTAGTFDQWGQGTLVTVSS: 0.27 (6 of 6 replicates).
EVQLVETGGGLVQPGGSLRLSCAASGVDIDEYGISWVRQAPGKGPEWVSVIYADGIRTFYIDKVKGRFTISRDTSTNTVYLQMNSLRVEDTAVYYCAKGNVGGMFDTWGQGTLVTVSS: 0.65 (6 of 6 replicates).
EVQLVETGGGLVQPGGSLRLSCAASGFDLDEYGISWVRQAPGKGPEWVSVIYADGRRTAYADSVKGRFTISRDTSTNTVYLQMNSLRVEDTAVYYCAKGQNAGTFDIWGQGTLVTVSS: -0.41 (6 of 6 replicates).
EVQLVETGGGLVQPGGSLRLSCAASGFDLNEYGISWVRQAPGKGPEWVSVIYADGMRTAYADNVKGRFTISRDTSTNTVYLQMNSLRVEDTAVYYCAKGQVAGTFDVWGQGTLVTVSS: -0.37 (6 of 6 replicates).
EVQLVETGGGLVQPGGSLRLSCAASGFDLNEYGISWVRQAPGKGPEWVSVIYADGRRTFYADSVKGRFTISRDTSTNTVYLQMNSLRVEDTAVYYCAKGNTAGTFVSWGQGTLVTVSS: -0.19 (6 of 6 replicates).
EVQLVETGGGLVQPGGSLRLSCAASGFNLDEEGISWVRQAPGKGPEWVSVIYADGIRTAYQDTVKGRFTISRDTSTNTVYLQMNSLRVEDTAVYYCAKGQNVATFNVWGQGTLVTVSS: 2.03 (1 of 6 replicates).
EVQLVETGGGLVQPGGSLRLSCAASGFDLNEYGISWVRQAPGKGPEWVSVIYADGKRTAYADDVKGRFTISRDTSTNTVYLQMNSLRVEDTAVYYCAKGNNAGTFDMWGQGTLVTVSS: -0.29 (6 of 6 replicates).
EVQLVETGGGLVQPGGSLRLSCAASGFDLNEYGISWVRQAPGKGPEWVSVIYADGVRTAYEEKVKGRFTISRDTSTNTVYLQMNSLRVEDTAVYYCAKGVIINLIWLWGQGTLVTVSS: 0.29 (5 of 6 replicates).
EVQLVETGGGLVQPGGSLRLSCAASGFDLNEYGISWVRQAPGKGPEWVSVIYADGMRTVYADSVKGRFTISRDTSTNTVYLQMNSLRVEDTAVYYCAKGEVAGTFDTWGQGTLVTVSS: 0.10 (6 of 6 replicates).
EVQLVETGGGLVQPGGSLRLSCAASGFDLNEYGISWVRQAPGKGPEWVSVIYADGQRTFYTDSVKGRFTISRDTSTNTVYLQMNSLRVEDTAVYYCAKGNVAGTFDVWGQGTLVTVSS: 0.68 (1 of 6 replicates).
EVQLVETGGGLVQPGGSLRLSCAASGFDLDEYGISWVRQAPGKGPEWVSVIYADGRRTFYADSVKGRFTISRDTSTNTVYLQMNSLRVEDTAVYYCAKGELAGTFDTWGQGTLVTVSS: -0.44 (6 of 6 replicates).
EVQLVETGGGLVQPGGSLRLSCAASGFDLDEYGISWVRQAPGKGPEWVSVIYADGRRTAYADDVKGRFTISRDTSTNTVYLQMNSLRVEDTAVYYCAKGNVAGTFDVWGQGTLVTVSS: 0.43 (6 of 6 replicates).
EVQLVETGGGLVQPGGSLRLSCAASGFNLNEYGISWVRQAPGKGPEWVSVIYADGMRTAYTDSVKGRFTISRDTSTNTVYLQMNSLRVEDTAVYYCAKGETAGTFDNWGQGTLVTVSS: -0.92 (6 of 6 replicates).
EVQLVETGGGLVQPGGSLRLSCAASGFELDEYGISWVRQAPGKGPEWVSVIYADGARTAYVDNVKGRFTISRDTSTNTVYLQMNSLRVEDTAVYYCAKGDAGGDFHVWGQGTLVTVSS: 2.63 (1 of 6 replicates).
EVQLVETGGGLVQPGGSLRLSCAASGFDLDEYGISWVRQAPGKGPEWVSVIYADGVRMAYTDSVKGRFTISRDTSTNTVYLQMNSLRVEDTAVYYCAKGNWSGRDMYWGQGTLVTVSS: no signal (0 of 6 replicates).
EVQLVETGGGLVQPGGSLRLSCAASGFDLNEYGISWVRQAPGKGPEWVSVIYADGRRTFYADNVKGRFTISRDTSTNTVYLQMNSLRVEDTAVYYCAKGNVAGTFDLWGQGTLVTVSS: -0.86 (6 of 6 replicates).
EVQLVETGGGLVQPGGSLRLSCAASGFDLNEYGISWVRQAPGKGPEWVSVIYADGVRTMYADSVKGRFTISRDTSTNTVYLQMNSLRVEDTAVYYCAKGENAGTFDVWGQGTLVTVSS: 0.37 (6 of 6 replicates).
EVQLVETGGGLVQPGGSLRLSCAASGFDLNEYGISWVRQAPGKGPEWVSVIYADGRRTFYADNVKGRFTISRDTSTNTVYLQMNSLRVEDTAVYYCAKGNVAGTFDEWGQGTLVTVSS: -0.59 (6 of 6 replicates).
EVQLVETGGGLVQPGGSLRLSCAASGFDIDEYGISWVRQAPGKGPEWVSVIYADGVRTFYADSVKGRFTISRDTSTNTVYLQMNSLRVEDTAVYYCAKGTNAGTFDIWGQGTLVTVSS: -0.96 (4 of 6 replicates).

Repeated from above, the 2 best binders with a signal in all replicates:

| VH | mean, log10 nM | detected |
|---|---|---|
| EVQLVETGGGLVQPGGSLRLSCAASGFNLNEYGISWVRQAPGKGPEWVSVIYADGMRTAYTDSVKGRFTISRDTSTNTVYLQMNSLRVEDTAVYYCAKGETAGTFDNWGQGTLVTVSS | -0.92 | 6 of 6 |
| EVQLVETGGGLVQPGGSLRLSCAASGFDLNEYGISWVRQAPGKGPEWVSVIYADGRRTFYADNVKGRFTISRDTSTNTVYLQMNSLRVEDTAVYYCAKGNVAGTFDLWGQGTLVTVSS | -0.86 | 6 of 6 |

As a blank, each scFv also met three strains without target: over all heavy chain designs, 1% of these pairings were detected, typically at 2.08 and seldom below 0.84. The authors averaged sequences with at least three values out of six and counted those with two or fewer as poor binders. The parent sequence was in this pool as ten entries: three were never detected, three once, and four in most replicates, with averages from 0.34 to 2.37.

The measurements come from Li et al. 2023 (doi:10.1038/s41467-023-39022-2) through the FLAb antibody collection.